Screening results: PubChem, National Center for Advancing Translational Sciences (NCATS)
A selection: hits, their analogues and other compounds. The true share with any hit is near 2.2%.
A549 viability: A549 cytotoxicity, counter-screen for Nrf2 inhibitors; Potency, µM (series often up to 46 µM), for the others: at the highest dose activity change, negative = cytotoxicity, most hits filed as inhibitors; 390,000 compounds, 0.16% hits; AID 504648; A549 ARE-Fluc cells, CellTiter-Fluor viability, 18-24 h; also: potency is read from the fitted curve at half-maximal effect; % is scaled to controls: 0 for no effect and ±100 for the full control effect
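A549 ARE_Fluc cells in 5% FBS OPTI-MEM were exposed to compounds in concentration-response for 18-24 h at 37 deg C. Viability was read by CellTiter-Fluor fluorescence (Ex 405/Em 525) after 30 min, before the luciferase read.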
Nrf2 inh: Nrf2 pathway inhibition. 360,000 compounds, 2.1% hits. Potency, µM (highest dose often 46 µM), for the others: top-dose activity change, negative = inhibition, most hits filed as inhibitors. A549 ARE-Fluc reporter, luciferase luminescence, 18-24 h; also: potency is read from the fitted curve at half-maximal effect; % is scaled to controls: 0 for no effect and ±100 for the full control effect; nearly all actives have a fitted effect of over 60% in size
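A549 ARE_Fluc cells, 5000/well, 5% FBS OPTI-MEM; compounds in dose-response, 18-24 h at 37 °C/5% CO2; CellTiter-Fluor viability read (Ex 405/Em 525), then BugLite luciferase luminescence = Nrf2 activity.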
Nrf2 activator: Nrf2 pathway activation; AREc32 ARE-luciferase reporter (MCF7-derived line), luminescence, 24 h; Potency, µM (titrated, usually from 46.1 µM), for the others: at the top dose activation, hits mostly activators; 410,000 compounds, 0.31% hits; also: potency is read from the fitted curve at half-maximal effect; % of control where 0% means no effect; nearly all actives have a fitted effect of over 65% in size
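Nrf2 activation is followed as ARE-luciferase induction in the AREc32 line after one day of compound treatment; luminescence is read with Steady-Glo.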
B2AR arrestin: beta2AR (human) beta-arrestin recruitment activity. P07550. beta-arrestin recruitment to beta2AR, cell-based reporter. Potency, µM (series often up to 46.1 µM), without a hit: at the highest dose activation, most hits filed as activators. 330,000 compounds, 0.02% hits. AID 492947;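 also: potency is read from the fitted curve at half-maximal effect; 0% = DMSO controls and full agonism = EC100 isoproterenol or metaproterenol; nearly all actives have a fitted effect of over 65% in size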
miR-21 reporter: miR-21 reporter, rising signal | HeLa miR-21 FLuc reporter, luciferase, 48 h | Potency, µM (doses to about 38.3 µM), inactives show at the top dose reporter change, positive = more light | 340,000 tested, under 10 active | AID 2288; active = well fitted rising curve with a large enough effect; inconclusive = small, poorly fitted or top-dose-only effect; inactive = no such curve, though single readings can be large or run the other way;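 note: % of control where 0% means no effect; miR-21 action dims this reporter so a rising signal means less miR-21 action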
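HeLa miR-21-FLuc reporter line, endogenous miR-21; 2000 cells/well in DMEM/10% FBS; compound titration up to ~40uM final, 48 h, 37 degree Celsius; luciferase detection reagent, 15 min lysis, CCD luminescence.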
* = called active by the depositor; ? = inconclusive; · = no result given; [ ] = remark or other dose. Unless noted, calls follow the shape of the dose curve; as a rule, active = well fitted curve in the direction sought with a large enough effect; inconclusive = small, poorly fitted or top-dose-only effect, or another doubt; inactive = no such curve, though single readings can be large; an effect the other way counts as inactive or inconclusive.

[1] COc1ccc(-n2c(C)nc3c(cnn3-c3ccc(C)cc3)c2=O)cc1
[2] COc1cccc(Cn2ncc3c4sc(SC)cc4n(C)c3c2=O)c1
[3] CCO[C@@H]1OC(C(=O)NCc2ccccc2)=C[C@H](c2ccc(C(F)(F)F)cc2)[C@H]1CCCO
[4] CCO[C@H]1OC(C(=O)NCc2ccccc2)=C[C@@H](c2ccc(Br)cc2)[C@@H]1CCCO
[5] CN(c1cccc(Cl)c1)S(=O)(=O)c1cccc(C(=O)Nc2nc3ccccc3[nH]2)c1
[6] O=C(Nc1nc2ccccc2[nH]1)c1cccc(Cl)c1
[7] COc1ccc(N(C)S(=O)(=O)c2cccc(C(=O)Nc3nc4ccccc4[nH]3)c2)cc1
[8] Cn1nnnc1Sc1ncnc2scc(-c3cccc([N+](=O)[O-])c3)c12
[9] Cc1cccc(CS(=O)(=O)CC2Nc3ccc(C(=O)NCc4ccccc4Cl)cc3NC2=O)c1 (stereo unspecified)
[10] CCOC(=O)C1CCCN(C(=O)Cn2ncn3c(cc4sc(CC)cc43)c2=O)C1 (stereo unspecified)

assay / entry	1	2	3	4	5	6	7	8	9	10
Nrf2 inh	18µM*	?	13µM*	-5%	?	?	23µM*	-27%	·	1%
Nrf2 activator	2%	·	-1%	0%	0%	5µM*	5%	·	-1%	4%
A549 viability	-2%	10%	16µM*	2%	-27%	10%	-8%	6%	17%	0%
B2AR arrestin	0%	·	-1%	-1%	0%	1%	0%	·	·	·
miR-21 reporter	2%	·	12%	-1%	26%	-41%	16%	·	-2%	13%

[11] CCOc1ccc(-n2nc3ccc(NC(=O)COc4ccccc4)cc3n2)cc1
[12] CCn1nnc(NC(=S)NC(=O)c2ccc(-c3cccc(Cl)c3)o2)n1
[13] CCOc1ccc(-n2nc3ccc(NC(=O)c4ccc(-c5cccc(Cl)c5)o4)cc3n2)cc1
[14] O=C1Cc2cc(S(=O)(=O)N3CCN(c4cccc(C(F)(F)F)c4)CC3)ccc2N1
[15] COc1ccc(OCC(=O)N(Cc2cccc(OC)c2)C2CCS(=O)(=O)C2)cc1 (stereo unspecified)
[16] COCCn1c(SCC(=O)c2ccc(F)cc2)nc2cc(C(=O)NC3CCCC3)ccc2c1=O
[17] COC(=O)c1c(N)sc(Cc2ccccc2)c1C
[18] COC(=O)c1c(NC(=O)/C=C/C(=O)O)sc(Cc2ccccc2)c1C
[19] COc1ccc(-c2cc(C(=O)Nc3cccc(O)c3)on2)cc1OC
[20] CC(C)(C)CC(C)(C)NC(=O)CSCC(=O)Nc1ccc2ccccc2c1

assay / entry	11	12	13	14	15	16	17	18	19	20
Nrf2 inh	11%	-19%	15µM*	6%[92.2 µM]	9%	?	5%	-21%	24%	16µM*
Nrf2 activator	-1%	4%	1%	·	0%	1%	0%	22µM*	4%	13%
A549 viability	0%	1%	-15%	13%[92.2 µM]	-6%	7%	5%	-12%	-6%	?
B2AR arrestin	·	18µM*	·	·	·	·	0%	1%	·	0%
miR-21 reporter	5%	-14%	7%	·	-3%	1%	2%	11%	14%	0%

[21] O=C(CSc1ccc2ccccc2c1)Nc1ccncc1
[22] CN(CCOc1ccccc1)CC(=O)Nc1cc([N+](=O)[O-])ccc1Cl
[23] COc1ccccc1C1Nc2c(sc3nc(C)cc(C)c23)C(=O)N1c1ccccc1 (stereo unspecified)
[24] O=C1c2cccc3cc([N+](=O)[O-])cc(c23)C(=O)N1/N=C/c1ccc(O)cc1O
[25] NNC(=O)Nc1cccc(C(F)(F)F)c1
[26] Cc1ccc(NC(=S)NNC(=S)Nc2cccc(C(F)(F)F)c2)cc1
[27] CCN(CC)S(=O)(=O)c1ccc(NC(=O)Nc2cccc(C(F)(F)F)c2)cc1
[28] O=C(Nc1ccncc1)Nc1cccc(C(F)(F)F)c1
[29] Cc1ccc(S(=O)(=O)Nc2ccc(NC(=O)Nc3cccc(C(F)(F)F)c3)cc2)cc1
[30] NC(=O)/C=C\C(=O)Nc1cccc(C(F)(F)F)c1

assay / entry	21	22	23	24	25	26	27	28	29	30
Nrf2 inh	7.3µM*	16µM*	-2%	?	-2%	3%	21µM*	?	18µM*	1.8µM*
Nrf2 activator	0%	0%	14%	28%	0%	0%	2%	0%	-3%	?
A549 viability	-10%[1.84 µM]	-9%	0%	23µM*	5%	-5%	?	0%	?	-21%
B2AR arrestin	-1%	0%	·	0%	-1%	-1%	0%	0%	0%	0%
miR-21 reporter	4%	-5%	-58%	11%	-1%	-20%	?	24%	?	1%

[31] O=C(Nc1ccc(OC(F)F)cc1)Nc1cccc(C(F)(F)F)c1
[32] CCOc1ccc(Sc2cc(C(=O)NC(C)c3ccccc3)c3ccccc3n2)cc1 (stereo unspecified)
[33] CCCNC(=O)C1CCC(Cn2c(=O)c3sccc3n(CC(=O)NCc3cccc(OC)c3OC)c2=O)CC1 (stereo unspecified)
[34] Cc1ccc2[nH]c3c(N4CCN(Cc5ccc6c(c5)OCO6)CC4)ncnc3c2c1
[35] c1ccc(CN2CCN(c3ncnc4c3[nH]c3ccccc34)CC2)cc1
[36] c1ccc2c(c1)[nH]c1c(N3CCC4(CC3)OCCO4)ncnc12
[37] Cc1ccc2[nH]c3c(N4CCN(Cc5ccccc5)CC4)ncnc3c2c1
[38] COCCCNC(=O)C1CCCN(c2nn3cc(-c4ccc(C)cc4)nc3s2)C1 (stereo unspecified)
[39] O=C1C2CC=CCC2C(=O)N1c1ccc(Cc2ccncc2)cc1 (stereo unspecified)
[40] CC(=O)c1ccc(NC(=O)Nc2ccc([N+](=O)[O-])cc2)cc1

assay / entry	31	32	33	34	35	36	37	38	39	40
Nrf2 inh	21µM*	·	-27%	·	15µM*	13µM*	9.2µM*	?	9.2µM*	11%
Nrf2 activator	0%	3%	0%	·	0%	3%	-2%	-1%	-1%	0%
A549 viability	?	-1%	-1%	·	-19%	-18%	?	7%	-16%	-3%
B2AR arrestin	0%	·	·	0%	0%	0%	0%	·	0%	0%
miR-21 reporter	?	-1%	2%	-4%	?	18%	?	?	6%	-34%

Quoted at random: three records from the list, in no set order.
[39] O=C1C2CC=CCC2C(=O)N1c1ccc(Cc2ccncc2)cc1 (stereo unspecified)
[31] O=C(Nc1ccc(OC(F)F)cc1)Nc1cccc(C(F)(F)F)c1
[35] c1ccc(CN2CCN(c3ncnc4c3[nH]c3ccccc34)CC2)cc1

assay / entry	39	31	35
Nrf2 inh	9.2µM*	21µM*	15µM*
Nrf2 activator	-1%	0%	0%
A549 viability	-16%	?	-19%
B2AR arrestin	0%	0%	0%
miR-21 reporter	6%	?	?

Next results
[41] Cc1ccc(NC(=O)Nc2cccc([N+](=O)[O-])c2)cc1F
[42] O=C(Nc1ccc(Oc2ccc(NC(=O)Nc3ccc([N+](=O)[O-])cc3)cc2)cc1)Nc1ccc([N+](=O)[O-])cc1
[43] O=C(Nc1ccc(OC(F)(F)F)cc1)Nc1cccc([N+](=O)[O-])c1
[44] O=C(Nc1ccc(OC(F)(F)F)cc1)c1[nH]ncc1[N+](=O)[O-]
[45] O=C(Nc1ccc(S(=O)(=O)N2CCCCCC2)cc1)c1[nH]ncc1[N+](=O)[O-]
[46] CCCN(CCC)CCCNC(=O)C1CCN(c2nc3ccc(CC)cc3s2)CC1
[47] O=S(=O)(c1ccc(Cl)cc1)N1CCN(C(=S)Nc2ccccc2F)CC1
[48] O=S(=O)(c1ccc2ccccc2c1)N1CCN(C(=S)Nc2ccccc2F)CC1

assay / entry	41	42	43	44	45	46	47	48
Nrf2 inh	?	16µM*	21µM*	7.3µM*	·	?	6%	15µM*
Nrf2 activator	9%	-1%	0%	?	·	7%	0%	0%
A549 viability	?	?	?	?	·	-1%	8%	-1%
B2AR arrestin	0%	-1%	-1%	0%	0%	·	0%	0%
miR-21 reporter	15%	4%	14%	-24%	-53%	?	1%	-2%
